# scFv variants of Ab-14 (light chain) against a SARS-CoV-2 spike peptide

The target is the same throughout: PDVDLGDISGINAS, from the HR2 region of SARS-CoV-2 spike.

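Phage display of a naive human antibody library on the peptide gave the parent. Designed CDR sequences, proposed from the first random library and measured here. Their group label is 14L_En_HC (En: ensemble of fine-tuned language models; HC: hill climbing; a sequence that several methods proposed may carry one label only). AlphaSeq pools MATa yeast showing the antibodies with MATalpha yeast showing the peptide. Pairs that bind mate more often; barcode pairs of the diploids are counted by sequencing. Scores were corrected for input abundance and mapped to Kd with protein pairs of known affinity run in the same pool. The assay was run in six technical replicates.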

Each scFv is VH, three GGGGS repeats, VL, as in the parent Ab-14, and differs from it in the CDRs of the light chain only.
VH: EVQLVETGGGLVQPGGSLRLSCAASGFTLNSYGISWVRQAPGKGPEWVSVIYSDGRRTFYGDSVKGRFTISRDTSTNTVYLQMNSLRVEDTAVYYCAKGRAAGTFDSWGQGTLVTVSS
VL: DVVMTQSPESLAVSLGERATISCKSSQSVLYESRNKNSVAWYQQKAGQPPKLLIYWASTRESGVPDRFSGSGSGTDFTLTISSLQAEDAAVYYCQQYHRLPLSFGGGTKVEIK

The parent's light chain CDRs are KSSQSVLYESRNKNSVA, WASTRES, QQYHRLPLS; each variant's own CDRs replace them letter for letter.
The read-out is the apparent dissociation constant on a log10 scale (nM): the lower, the stronger.
"nd" means that the variant was in the library but no mating with the target was seen in that replicate; the authors take this as a sign of poor binding, and no number exists.
The parent sequence was in this pool as ten entries: three were never detected, three once, and four in most replicates, with averages from 0.34 to 2.37.
Three control strains display no target. For all light chain designs, 4% of the pairings with them gave a signal, with a median of 2.64 and one signal in twenty below 1.59, so weak values seen in few replicates may be background. Also given: how often the same scFv was detected with the empty control strains, with their mean in brackets.
The range of this assay differs from that of the first round, and the authors advise against merging the two.
In the paper, a design with two or fewer of six values counts as a poor binder.

CDR-L1 | CDR-L2 | CDR-L3 | log10 Kd (nM) by replicate | control signals
TLGAATLEESRNKNSVA | EMSLRES | QSYNRLPLS | 1.45 1.25 1.41 1.18 1.25 1.42 | 3/18 (2.10)
KISQMYRYEQQNSSSIA | EANTRMN | QSYHRLPLS | nd 2.18 3.37 2.67 2.84 2.62 | 0/18
HISQSVGMTSRQKNSVA | ENSTRED | QQYDRLPLS | nd nd nd 2.90 2.59 4.78 | 0/18
KLLQEVTGHSRQRNSVA | HNSTRED | QQYDRLPLS | nd nd nd nd nd nd | 0/18
HISQEVGMTSRNKNSVA | ENSTRED | QQYDRLPLS | 1.84 1.95 1.09 1.29 1.75 1.35 | 3/18 (2.79)
MISDLTMYGMRNKNSVA | DSSTRGS | QQYHRLPLS | 0.08 -0.03 -0.12 -0.20 -0.19 0.18 | 3/18 (2.81)
TISQSFNMTSRGKNSVA | QAEMRES | QQYDRLPLS | 0.65 nd 0.30 0.73 nd 0.63 | 0/18
NFSQMVLTGQTLKNSVA | HASTREE | QQYHRLPLI | 1.08 0.89 0.90 0.92 0.88 1.20 | 1/18 (2.91)
MLGDTVMQGMYSRNSVA | QESTRAE | QQYHHLPLS | 0.08 -0.13 -0.18 -0.21 -0.08 -0.04 | 1/18 (2.75)
KLSIMYQHTSREKNNIA | ERSTRES | QQYHHLPLS | 1.39 0.80 1.36 1.52 0.84 2.01 | 0/18
KLSISHQVESINKSNVA | ELVTRES | QQYDRLPLS | nd 2.32 1.37 nd nd nd | 0/18
IISGSMLVESRNKNSVA | NAETREY | QHYDRLPLS | 1.40 2.31 1.67 1.16 1.42 1.94 | 3/18 (2.48)
TVSEVHGMLSHNKNSVA | DMNTRGS | QQYDRLPLS | 0.33 0.18 -0.07 -0.18 0.47 -0.08 | 0/18
KLLQSVQYGSRALNSVA | QMETRED | QQYNRLPLS | 0.17 0.56 -0.12 0.60 0.23 0.07 | 0/18
ILSQMLLTAGNKHSSVA | QANNRES | QQYHRLPLS | 2.12 1.59 2.21 1.39 1.83 1.50 | 1/18 (3.75)
KLSVSTSYLSVNKHSVA | EMSTRES | QQYDRLPLS | 0.84 0.29 0.68 0.71 0.17 0.59 | 1/18 (2.05)
IFSQSVLMGNLIKNSVA | QASTRFS | QQYHRLPLI | 2.10 nd nd nd nd 2.30 | 0/18
KLSMLYRYETEEKNSIA | ELVTRMS | QQYHRLPLS | nd nd nd nd nd nd | 0/18
KISQLVNFLGKEKNSVA | QMSTREE | QQYDRLPLS | 1.03 0.68 0.97 0.81 0.80 0.60 | 2/18 (3.00)
MISFLTMYGSRNKNSVA | DLSTRGS | QQYHRLPLS | 0.65 0.52 0.11 0.13 0.46 0.60 | 1/18 (3.89)
MLSDLNKMGVRQTQSVA | DNSTRGE | QQYDRLPLS | 1.51 1.46 1.17 1.79 1.79 1.99 | 1/18 (2.52)
HLLQTVMYGSTRKNNVA | HAQTREN | QQYHRLPLS | 1.64 1.31 1.16 nd 1.53 1.58 | 0/18
KLTQVTHSEHKNKNSIA | EMVTREK | QQYDRLPLS | 1.38 2.74 0.84 1.01 1.05 1.55 | 1/18 (1.90)
TLSDLMYMESRNMNSVA | DLVKRES | QQYHRLPLS | 0.44 0.69 0.16 0.99 0.69 0.70 | 0/18
ILSQSVLMGMHTKNSVA | QATMRFN | QQYNRLPFM | 1.74 1.78 1.21 2.68 1.27 2.75 | 0/18
MISDTGLHDSRMQNSVA | NNSTREP | QQYHRLPLS | 1.74 1.41 2.00 1.06 1.77 2.47 | 1/18 (2.66)
MISQSFFIGMKAKNSVA | QTNTREE | QQYDRLPLI | 2.09 1.43 1.39 1.24 2.83 1.75 | 1/18 (2.05)
MFSQLFMYGSRNYNSVA | QANTRES | QQYHRLPLI | 0.62 1.68 1.69 1.81 1.49 nd | 0/18
KISQMYRYEQQNSSSIA | EVSMRLN | QSYHRLPLS | 2.49 nd 2.28 2.89 2.55 3.83 | 0/18
KLGQMTGIESHNKNSLA | DANRRES | QQYYRLPLS | -0.23 -0.43 -0.68 -0.67 -0.52 -0.38 | 1/18 (3.57)
KLGGMTAIESRNNNSVA | QMDTRES | QQYDRLPLS | 0.96 0.88 0.77 0.86 0.90 1.43 | 1/18 (3.80)
TIGPMLMTESHNKNNVA | GMQTRER | QQYHRLPLS | 0.03 -0.08 -0.26 0.02 -0.14 -0.33 | 0/18
KLYQNVGTMSHAKQSIA | DMERRED | QQYHRLPLS | 0.43 0.30 0.48 -0.03 0.42 0.38 | 1/18 (2.68)
KIGGVTNGVSRSKNSVA | EQSTRED | QQYNRLPLS | 0.67 0.61 0.82 0.29 0.56 0.69 | 1/18 (2.02)

Repeated from above, the 2 best binders with a signal in all replicates:

CDR-L1	CDR-L2	CDR-L3	log10 Kd (nM) by replicate	control signals
KLGQMTGIESHNKNSLA	DANRRES	QQYYRLPLS	-0.23 -0.43 -0.68 -0.67 -0.52 -0.38	1/18 (3.57)
TIGPMLMTESHNKNNVA	GMQTRER	QQYHRLPLS	0.03 -0.08 -0.26 0.02 -0.14 -0.33	0/18

Values reported by Li et al. 2023, doi:10.1038/s41467-023-39022-2 (FLAb copy).